# From patent publication US20120258482A1, “PCNA METHYLTRANSFERASE” (INDIANA UNIVERSITY RESEARCH AND TECHNOLOGY CORPORATION, priority 2009, published 2012)
# Tested on: carboxyl methyltransferase in MCF7 breast cancer cell extracts
# Assay: Vapor diffusion assay of SAM-dependent carboxyl methyltransferase activity in cell extracts
# Type: biochemical, human
# Conditions: 10 μg added to MCF7 cell extract, [3H-methyl]-SAM
# Description: Vapor diffusion assay. The assay was performed basically as previously described (Murray, E. D., Jr. & Clarke, S. J Biol Chem 259, 10722-10732 (1984). MCF7 breast cancer cell extracts were assayed 1-2 h in the presence of [^3H-methyl]-SAM (NEN). Following incubation, extracts were equilibrated with 100 mM NaOH with 2% SDS and spotted onto filter paper folded into an accordion pleat and placed into the neck of a vial above scintillation fluid. ^3H-methanol present in the scintillation fluid was measured the following day (See FIG. 1).
# To identify PCNA-dependent carboxyl methyltransferase activity in human cells, breast cancer cell extracts were assayed in the presence of radiolabeled-S-adenosyl-L-methionine (SAM). Methyl esters formed by SAM-dependent methyltransferase activity were hydrolyzed by the addition of base and the liberated radiolabeled methanol was measured by passive diffusion into scintillation fluid (See FIG. 1). Using this approach applicants detected enzymatic methyl esterification of substrates endogenous to the breast cancer cell extracts (FIG. 2A and FIG. 2B).
substance,measurement,value
"recombinant PCNA: purified recombinant proliferating cell nuclear antigen, CBP or 6× His fusion, methyltransferase substrate",increase in amount of methyl esters detected over background,five
